Results as given in ChEMBL document CHEMBL4425169, “Discovery of MK-7145, an Oral Small Molecule ROMK Inhibitor for the Treatment of Hypertension and Heart Failure” (ACS Med Chem Lett, 2016).

Assays:
[1] = biological target: T1, ATP-sensitive inward rectifier potassium channel 1 (Homo sapiens, UniProt P48048); test: Inhibition of ROMK (unknown origin) after 30 mins by 86Rb+ efflux assay
T1 sequence (P48048 whole entry): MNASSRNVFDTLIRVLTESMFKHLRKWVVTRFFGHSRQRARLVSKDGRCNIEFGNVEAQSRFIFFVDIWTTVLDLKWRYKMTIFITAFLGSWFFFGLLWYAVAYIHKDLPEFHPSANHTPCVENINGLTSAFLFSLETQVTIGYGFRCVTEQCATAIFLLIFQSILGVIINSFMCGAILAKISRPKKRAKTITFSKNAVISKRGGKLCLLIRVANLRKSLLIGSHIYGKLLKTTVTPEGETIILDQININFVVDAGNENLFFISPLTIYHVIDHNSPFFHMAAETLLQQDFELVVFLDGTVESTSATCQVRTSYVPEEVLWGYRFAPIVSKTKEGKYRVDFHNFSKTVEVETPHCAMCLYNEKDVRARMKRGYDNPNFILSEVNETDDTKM

[2] = biological target: T1, ATP-sensitive inward rectifier potassium channel 1; test: Inhibition of ROMK (unknown origin) expressed in CHO cells after 6 mins by electrophysiological assay; format: cell-based
[3] = biological target: T1, ATP-sensitive inward rectifier potassium channel 1; test: Inhibition of ROMK (unknown origin) after 30 mins by Tl+ influx assay

| SMILES | IC50 [1] [nM] | IC50 [2] [nM] | IC50 [3] [nM] |
| --- | --- | --- | --- |
| Cc1c(C(O)CN2CCN(CC(O)c3ccc4c(c3C)COC4=O)CC2)ccc2c1COC2=O (stereo not given) | 45 | 15 | – |
| Cc1c([C@H](O)CN2CCN(C[C@H](O)c3ccc4c(c3C)COC4=O)CC2)ccc2c1COC2=O | 112 | – | – |
| Cc1c([C@H](O)CN2CCN(C[C@@H](O)c3ccc4c(c3C)COC4=O)CC2)ccc2c1COC2=O | 134 | – | 59 |
